Screening data (PubChem BioAssay)
The list is not random: actives were taken first. Their share in the collection is about 3.7%.
miR-21 reporter – raises the signal of a miR-21 reporter; HeLa miR-21 FLuc reporter, luciferase, 48 h; Potency, µM (top dose mostly 38.3 µM), for inactives: at the highest dose reporter change, positive = more light; AID 2288; 340,000 tested, under 10 active; active = well fitted rising curve with a large enough effect; inconclusive = small, poorly fitted or top-dose-only effect; inactive = no such curve, though single readings can be large or run the other way;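 note: % of control where 0% means no effect; miR-21 action dims this reporter so a rising signal means less miR-21 action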
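HeLa cells endogenously expressing miR-21, stably carrying CMV-driven firefly luciferase with a downstream miR-21 binding site, 2000 cells/well. Titrations up to approximately 40 uM, 48 hours; luciferase luminescence read.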
TCR act – activators of T cell receptors. primary human leukocytes, anti-CD3, IL-2 HTRF, 48 h. Potency, µM (titrated, usually from 9.22 µM), for the others: top-dose activation of IL-2 secretion, hits mostly activators. 330,000 tested, under 10 active; also: % of control where 0% means no effect
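IL-2 release read by HTRF sandwich (Eu cryptate donor, d2 acceptor, 665 nm emission) after 48 hr exposure of primary human leukocytes to compound together with anti-CD3 beads in the absence of co-stimulatory signals.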
ClpP mod – qHTS Assay for Activators of ClpP; Potency, µM (highest dose often 57.5 µM), for inactives: at the top dose activity change, negative = active; purified B. subtilis ClpP, FRET peptide cleavage, 20 min; 1.9% of 340,000 active; AID 651965, 2013; ATP-dependent Clp protease proteolytic subunit (Bacillus subtilis (strain 168)), P80244; active = well fitted falling curve with a large enough effect; inconclusive = small, poorly fitted or top-dose-only effect; inactive = no such curve, though single readings can be large or run the other way; also: potency is read from the fitted curve at half-maximal effect; the source files actives as falling curves though it sought activators and does not explain the sign; nearly all actives have a fitted effect of over 65% in size
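Purified B. subtilis ClpP, 10 microg/mL final in Tris/HCl pH8 with KCl, BSA, glycerol and Tween-20, cleaved an Abz/nitrotyrosine-quenched decapeptide. Fluorescence (ex 320, em 430) was read at 0 and 20 min at room temperature. Delta was normalized to 5.8 microM ADEP and DMSO/no-enzyme controls.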
Nrf2 activator – activates Nrf2 signaling; AREc32 ARE-luciferase reporter (MCF7-derived line), luminescence, 24 h; Potency, µM (highest dose often 46.1 µM), for inactives: at the highest dose activation, most hits filed as activators; 0.31% of 410,000 active; AID 624171; also: potency is read from the fitted curve at half-maximal effect; % of control where 0% means no effect; nearly all actives have a fitted effect of over 65% in size
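Reporter line AREc32 (ARE-Fluc), seeded overnight in OPTI-MEM with 5% FBS; compound pin-transferred, 24 hr at 37 deg C, 5% CO2; luminescent read-out.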
Nrf2 block – blocks Nrf2 signaling; Potency, µM (highest dose often 46 µM), for inactives: at the highest dose activity change, negative = inhibition, usual class: inhibitors; A549 ARE-Fluc reporter, luciferase luminescence, 18-24 h; 2.1% of 360,000 active; also: potency is read from the fitted curve at half-maximal effect; % is scaled to controls: 0 for no effect and ±100 for the full control effect; nearly all actives have a fitted effect of over 60% in size
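In this cell-based qHTS, ARE-driven firefly luciferase in A549 cells reports Nrf2 activity; the luminescent signal after BugLite lysis is the measured value, with a prior CellTiter-Fluor read for cell health.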
A549 tox – kills or reduces viability of A549 cells in Nrf2 counter-screen; A549 ARE-Fluc cells, CellTiter-Fluor viability, 18-24 h; Potency, µM (doses to about 46 µM), without a hit: at the top dose activity change, negative = cytotoxicity, usual class: inhibitors; 0.16% of 390,000 active; AID 504648; also: potency is read from the fitted curve at half-maximal effect; % is scaled to controls: 0 for no effect and ±100 for the full control effect
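Cytotoxicity counterscreen: CellTiter-Fluor fluorescence was measured in A549 ARE_Fluc cells after 18-24 h of compound exposure in a concentration series. The subsequent BugLite luminescent read reports ARE-luciferase activity.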
An asterisk follows results filed as active; ? = inconclusive; / = no result; [ ] = dose if it differs, or a comment. Unless noted, calls follow the shape of the dose curve; as a rule, active = well fitted curve in the direction sought with a large enough effect; inconclusive = small, poorly fitted or top-dose-only effect, or another doubt; inactive = no such curve, though single readings can be large; an effect the other way counts as inactive or inconclusive.

Protein sequences, listed by entry. Tags and fused reporters are not part of them.
ATP-dependent Clp protease proteolytic subunit (Bacillus subtilis (strain 168)), P80244, UniProt P80244, whole entry, looked up: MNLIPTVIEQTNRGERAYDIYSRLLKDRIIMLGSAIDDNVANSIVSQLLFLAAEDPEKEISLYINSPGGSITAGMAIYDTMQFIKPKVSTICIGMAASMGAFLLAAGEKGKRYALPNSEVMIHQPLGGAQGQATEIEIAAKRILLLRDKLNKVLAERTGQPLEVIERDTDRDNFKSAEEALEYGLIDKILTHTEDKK

Sample of the layout:
1: CCc1ccc(/C(C)=N/NC(=O)c2ccc(-n3cnnn3)cc2)cc1
2: Cc1nc(-c2ccc(Cl)cc2)sc1CCNC(=O)C(=O)Nc1ccccc1C#N
Assay by compound	1	2
ClpP mod	0%	-8%
A549 tox	3%	-7%
Nrf2 block	-27%	/
miR-21 reporter	/	-27%
TCR act	/	/
Nrf2 activator	0%	4%

Results (from the top)
1: CCc1ccc(/C(C)=N/NC(=O)c2ccc(-n3cnnn3)cc2)cc1
2: Cc1nc(-c2ccc(Cl)cc2)sc1CCNC(=O)C(=O)Nc1ccccc1C#N
3: COc1ccc(C(=O)NCCn2cc(SCc3cccc(F)c3)c3ccccc32)cc1OC
4: COc1ccccc1C(=O)NCCn1cc(SCC(=O)Nc2ccccc2F)c2ccccc21
5: O=C(Cn1cc(SCc2ccc(F)cc2)c2ccccc21)N1CCOCC1
6: O=C(Cn1cc(SCc2ccc(Cl)cc2)c2ccccc21)N1CCOCC1
7: COc1ccc(Cl)cc1NC(=O)CSC1=NN2CCCC(=O)N=C2S1
8: COc1ccc(OC)c(NC(=O)CSC2=NN3CCCC(=O)N=C3S2)c1
Assay by compound	1	2	3	4	5	6	7	8
ClpP mod	0%	-8%	-4%	-5%	2.8µM*	0%	/	/
A549 tox	3%	-7%	-16%	-21%	-4%	-4%	-13%	1%
Nrf2 block	-27%	/	23µM*	23µM*	27%	2%	23µM*	-10%
miR-21 reporter	/	-27%	?	?	-30%	-34%	10%	-4%
TCR act	/	/	/	/	0%[46.1 µM]	1%[46.1 µM]	3%	-1%
Nrf2 activator	0%	4%	-1%	0%	3%	9%	2%	0%

9: COc1ccc(C)cc1NC(=O)COC(=O)c1ccccc1SCC(=O)N1CCCC1
10: O=C(CSc1cn(CCNC(=O)c2ccc3ccccc3c2)c2ccccc12)NCc1ccco1
11: Cc1ccccc1NC(=O)CSc1cn(CC(=O)N2CCCC2)c2ccccc12
12: O=C(CSc1cn(CC(=O)N2CCCCCC2)c2ccccc12)Nc1ccccc1F
13: COc1ccc(Cl)cc1NC(=O)CSc1cn(CC(=O)N2CCCCCC2)c2ccccc12
14: COc1ccc(NC(=O)CSc2cn(CCNC(=O)c3ccc(OC)cc3)c3ccccc23)cc1
15: Cc1ccc(C)c(Cn2c(=O)n(Cc3ccccc3)c(=O)c3c(C)c(C)sc32)c1
16: Cc1cc(S(=O)(=O)N(Cc2ccc(C(C)C)cc2)CC2CCCO2)ccc1-n1cnnn1 (centres undefined)
Assay by compound	9	10	11	12	13	14	15	16
ClpP mod	28µM*	-4%	0%	-7%	0%	0%	0%	1%
A549 tox	-2%	-27%	2%	-11%	-7%	-13%	0%	-10%
Nrf2 block	2%	23µM*	/	21µM*	26µM*	-27%	8%	23µM*
miR-21 reporter	/	13%	1%	25%	30%	?	-1%	17%
TCR act	14%	-5%	/	/	/	/	/	/
Nrf2 activator	3%	6%	-1%	1%	1%	4%	0%	-1%

17: CC(=O)N1C(=O)c2cccc3cccc(c23)C(=O)N1C(C)=O
18: CSc1nnc(-c2cc(-c3ccc(C)cc3)nc3ccccc23)o1
19: c1ccc(-n2nnnc2SCc2cn3cccnc3n2)cc1
20: CCOC(=O)c1ccc(N(C(=O)c2ccccc2)c2ccccc2)cc1
21: Cc1nc(NCc2ccco2)c2cn[nH]c2n1
22: c1coc(CNc2ncnc3[nH]ncc23)c1
23: c1coc(CNc2nc3nonc3nc2NCc2ccco2)c1
24: CCN(CC)C(=O)c1sc2c(c1C)c(=O)n(-c1ccc(OC)cc1OC)c(=O)n2CC(=O)c1ccc(Cl)cc1
Assay by compound	17	18	19	20	21	22	23	24
ClpP mod	25µM*	35µM*	25µM*	-4%	/	-4%	-9%	1%
A549 tox	-15%	0%	1%	/	-8%	0%	-18%	1%
Nrf2 block	8%	?	7%	/	23µM*	?	7.3µM*	/
miR-21 reporter	-6%	-1%	-1%	/	/	1%	21%	1%
TCR act	-1%	-11%[46.1 µM]	4%	/	4%	-3%	/	/
Nrf2 activator	0%	0%	0%	/	26%	?	26%	4%

25: COc1ccccc1-n1c(=S)sc2c(=O)n(Cc3ccco3)c(SC)nc21
26: COc1ccccc1-n1c(SC)nc2c(sc(=S)n2-c2ccccc2)c1=O
27: COc1ccc(-c2sc3ccc(N4CCOCC4)cc3c2C#CCCO)cc1
28: Nc1ccc(C(=O)C(=O)c2ccc(N)cc2)cc1
29: N=C1C=CC(=C(c2ccc(N)cc2)c2ccc(N)cc2)C=C1
30: COc1ccc(COC(=O)c2cc(S(=O)(=O)N3CCCCC3)ccc2N2CCOCC2)cc1
31: Cc1ccc(OCCOC(=O)c2cc(S(=O)(=O)N3CCCCC3)ccc2N2CCOCC2)cc1
32: CC(=O)c1ccc(NC(=O)Cn2cc3c(n2)CCCC3)cc1
Assay by compound	25	26	27	28	29	30	31	32
ClpP mod	-3%	/	-25%	-1%	-1%	-10%	-22%	-1%
A549 tox	2%	-18%	1%	4%	9.2µM*	-1%	-10%	5%
Nrf2 block	8.2µM*	1%	5%	11%	7.3µM*	?	12µM*	9%
miR-21 reporter	-8%	3%	/	-10%	/	/	/	1%
TCR act	/	-5%	7%	0%	6%	2%	6%	/
Nrf2 activator	0%	-1%	4%	0%	10%	0%	2%	-1%

33: COCCNC(=O)CSc1nc2ccccc2nc1Cc1ccc(C)cc1
34: O=c1c(O)c(-c2ccc(O)c(O)c2)oc2cc(O)ccc12
35: O=c1c(O)c(-c2ccc(O)cc2)oc2cc(O)cc(O)c12
36: CCCCCCC[N+](CC)(CC)CCCCc1ccc(Cl)cc1
37: COc1ccc(NC2=C(Cl)C(=O)N(CCc3ccccc3)C2=O)cc1
38: COc1ccc(NC2=C(Cl)C(=O)N(CCc3ccccc3)C2=O)c(OC)c1
39: CCOc1ccc(CCNC(=O)c2cnc3sc(N4CCCCC4)nn3c2=O)cc1
40: COc1ccccc1CNC(=O)c1cnc2sc(N3CCCCCC3)nn2c1=O
Assay by compound	33	34	35	36	37	38	39	40
ClpP mod	-2%	-17%	-2%	1%	-1%	-2%	-9%	14µM*
A549 tox	3%	-3%	6%	-7%	-4%	0%	0%	1%
Nrf2 block	/	12µM*	7%	16µM*	2%	1%	?	-6%
miR-21 reporter	-5%	/	/	/	-36%	-49%	1%	-4%
TCR act	/	1%	-1%	-4%	-2%[46.1 µM]	1%[46.1 µM]	/	/
Nrf2 activator	-1%	4%	23%	-1%	?	13µM*	0%	1%

Quoted at random: three entries already listed
38: COc1ccc(NC2=C(Cl)C(=O)N(CCc3ccccc3)C2=O)c(OC)c1
39: CCOc1ccc(CCNC(=O)c2cnc3sc(N4CCCCC4)nn3c2=O)cc1
33: COCCNC(=O)CSc1nc2ccccc2nc1Cc1ccc(C)cc1
Assay by compound	38	39	33
ClpP mod	-2%	-9%	-2%
A549 tox	0%	0%	3%
Nrf2 block	1%	?	/
miR-21 reporter	-49%	1%	-5%
TCR act	1%[46.1 µM]	/	/
Nrf2 activator	13µM*	0%	-1%

Later entries:
41: CCN(CC)c1nn2c(=O)c(C(=O)NCCc3cccc(C)c3)cnc2s1
42: CCOCCCNC(=O)c1cnc2sc(N3CCCCCC3)nn2c1=O
43: O=C(NCCc1ccccc1)c1cnc2sc(N3CCOCC3)nn2c1=O
44: Cc1ccc(OCC(=O)OCc2cc(=O)n3nc(C4CCCCC4)sc3n2)cc1C
45: CCCCNC(=O)c1cnc2sc(N3CCCCC3)nn2c1=O
46: COc1ccc2c(c1)sc1ncc(C(=O)NCc3ccccc3F)c(=O)n12
47: CCCCNC(=O)c1cnc2sc(N3CCCCCC3)nn2c1=O
48: Cc1nc(-c2ccc(F)cc2)c(CC(=O)N2CCN(S(=O)(=O)c3cccc([N+](=O)[O-])c3)CC2)s1
Assay by compound	41	42	43	44	45	46	47	48
ClpP mod	11µM*	16µM*	10µM*	-2%	4%	11µM*	25µM*	/
A549 tox	1%	4%	5%	-1%	7%	1%	0%	-7%
Nrf2 block	-8%	-10%	0%	?	?	0%	-1%	-12%
miR-21 reporter	0%	-6%	-17%	0%	-16%	-5%	-12%	/
TCR act	/	/	/	/	/	/	/	4%
Nrf2 activator	4%	-1%	0%	-1%	-1%	1%	0%	1%
